Sequences of proteins named here, by UniProt entry; tags and fusion partners are left off. Residues count along the entry.
UniProt Q6SZW1, 50-724 limits assumed: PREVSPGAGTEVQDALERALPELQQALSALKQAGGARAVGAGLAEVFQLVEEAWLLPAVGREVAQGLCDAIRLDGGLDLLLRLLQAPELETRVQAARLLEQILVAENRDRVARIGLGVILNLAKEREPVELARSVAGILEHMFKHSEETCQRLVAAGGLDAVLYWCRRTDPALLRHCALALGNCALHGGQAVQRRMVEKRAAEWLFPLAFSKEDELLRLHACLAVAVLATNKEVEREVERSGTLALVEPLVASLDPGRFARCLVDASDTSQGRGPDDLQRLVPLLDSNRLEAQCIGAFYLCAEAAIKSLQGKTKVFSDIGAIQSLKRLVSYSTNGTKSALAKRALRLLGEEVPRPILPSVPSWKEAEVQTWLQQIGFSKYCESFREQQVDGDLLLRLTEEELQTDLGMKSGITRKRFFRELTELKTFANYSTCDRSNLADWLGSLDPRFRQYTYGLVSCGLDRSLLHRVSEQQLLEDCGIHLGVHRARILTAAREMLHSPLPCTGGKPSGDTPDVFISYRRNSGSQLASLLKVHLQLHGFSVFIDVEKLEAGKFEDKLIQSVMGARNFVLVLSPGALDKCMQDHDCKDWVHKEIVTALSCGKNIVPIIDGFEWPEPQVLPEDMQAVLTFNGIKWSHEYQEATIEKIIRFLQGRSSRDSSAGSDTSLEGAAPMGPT

In patent publication US20250320184A1 (SIRONAX LTD., priority 2022, published 2025):

Molecular target: SARM1 (50-724) (Homo sapiens, UniProt Q6SZW1)
Experiment: SARM1 (50-724) enzymatic assay
Conditions: SARM1 inhibitory activity; purified SARM1 (50-724) 2 nM, 200 μM NMN activator, 100 μM NAD+ substrate, LC-MS/MS

**Q.** How did the pIC50 turn out when `O=C1Nc2cc(NS(=O)(=O)c3cccc(Cl)c3Cl)ccc2C12CCC2` was run?
**A.** The pIC50 was over 7.00.

pIC50: −log10 of the molar value.
